The target of one experiment is Mouse FOLR1 (Mus musculus, UniProt P35846). Nature of the experiment: ELISA species specificity of antibodies. The settings on record: coated antigen mouse FOLR1. Type of experiment: binding. The procedure: (§1) Each antigen was diluted to 1 μg/mL with PBS and added to a microplate (manufacturer: Corning, Catalog No.: 42592) in a volume of 100 μL per well, and the microplate was coated overnight in a refrigerator (2-8° C.). The coating solution was discarded, and 200 μL of a blocking solution (containing 5% skimmed milk powder, prepared from PBS) was added. The microplate was left to stand in an electric thermostatic incubator at 37° C. for 2 h. The blocking solution was discarded, and the microplate was washed 3 times with 0.05% PBST. Antibody dilutions at different concentrations (at an initial concentration of 6 μg/mL, 3-fold dilution, 8 concentration gradients in total, diluted with PBS) were added at 100 μL per well. The microplate was left to stand in the electric thermostatic incubator at 37° C. for 2 h. The antibody dilutions were discarded, and the microplate was washed 8 times with 0.05% PBST and patted dry. Anti-Human Kappa Light Chains (Bound and Free) peroxidase antibody Produced in goat (manufacturer: sigma, Catalog No.: A7164-1ML) diluted in a 1:10000 ratio was added at 100 µL/well. The microplate was left to stand in the electric thermostatic incubator at 37° C. for 1 h. […] The microplate was read on SpectraMax Plus Absorbance Microplate Reader with an absorption light wavelength of 450 nm.
On the technique in general: In an ELISA, binding on a coated surface is turned into a signal by an enzyme label.

Protein sequences, listed by entry. Tags and fused reporters are not part of them. Chains listed by the source or under a name are the forms on record and can include a tag or linker. Residues count along the entry.
UniProt P35846, 25-232: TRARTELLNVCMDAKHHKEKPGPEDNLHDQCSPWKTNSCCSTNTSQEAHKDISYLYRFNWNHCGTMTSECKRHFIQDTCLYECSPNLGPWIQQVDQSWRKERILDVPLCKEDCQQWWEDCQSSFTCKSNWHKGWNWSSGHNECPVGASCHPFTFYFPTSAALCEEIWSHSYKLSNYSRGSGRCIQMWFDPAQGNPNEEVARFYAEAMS
UniProt Q9JL02, 20-255: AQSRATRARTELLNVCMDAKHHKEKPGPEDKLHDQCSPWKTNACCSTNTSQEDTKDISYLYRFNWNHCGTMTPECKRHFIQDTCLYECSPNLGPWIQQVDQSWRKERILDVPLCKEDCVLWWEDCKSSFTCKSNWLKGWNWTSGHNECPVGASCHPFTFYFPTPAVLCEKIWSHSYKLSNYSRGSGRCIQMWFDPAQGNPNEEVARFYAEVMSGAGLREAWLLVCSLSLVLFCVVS
UniProt P15328, with tags, fused parts or gaps: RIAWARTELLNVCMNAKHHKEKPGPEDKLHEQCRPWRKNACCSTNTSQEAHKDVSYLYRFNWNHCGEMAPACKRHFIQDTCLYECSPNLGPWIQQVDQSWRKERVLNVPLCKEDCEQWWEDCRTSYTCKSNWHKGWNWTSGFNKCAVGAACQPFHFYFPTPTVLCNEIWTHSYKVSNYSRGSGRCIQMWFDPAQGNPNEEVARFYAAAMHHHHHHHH

A further experiment has as its target Rat FOLR1 (Rattus norvegicus, UniProt Q9JL02). Nature of the experiment: ELISA species specificity of antibodies. In kind it is binding. The following applies: coated antigen rat FOLR1. The protocol:
as §1

Another experiment concerns the target T1, FRα-His (Homo sapiens, UniProt P15328).
T1 construct: 8xHis (C); made in house; host or cells: CHO-K1
Nature of the experiment: Binding activity to FRα-His (Biacore). The following applies: Biacore T200. The procedure: • HBS-EP+(10×): purchased from GE Healthcare, cat #BR-1006-69; • Glycine pH 1.5: purchased from GE Healthcare, cat #BR100354; • Running buffer: 50 mL of HBS-EP+(10×) was taken, and 450 mL of ultrapure water was added, and the resulting solution was well mixed. • Experimental instrument: Biacore: T200, purchased from GE Healthcare.
A Protein A chip was used for the assay.
Experiment results were analyzed using data analysis software Evaluation Software 3.1. The sensing signals acquired from the experimental flow channels for the samples were subjected to double subtraction (minus values of reference flow channels and blank control), and the fitting was performed using a “1:1” kinetic model to obtain the kinetic parameters (Ka: association rate; Kd: dissociation rate; KD: equilibrium dissociation constant) for the binding of each sample to the antigens.
For orientation: Surface plasmon resonance follows binding to a sensor surface in real time, without labels.

B1: Antibody 1: humanized anti-FRα antibody, heavy chain SEQ ID NO: 19, light chain SEQ ID NO: 20 (antibody)
heavy: QVQLVQSGVEVKKPGASVKVSCKASGYSFTGYFMNWVRQAPGQGLEWIGRIHPYDGDTFYNQNFKDKATLTVDKSTTTAYMELKSLQFDDTAVYYCTRYDGSRAMDYWGQGTTVTVSSASTKGPSVFPLAPSSKSTSGGTAALGCLVKDYFPEPVTVSWNSGALTSGVHTFPAVLQSSGLYSLSSVVTVPSSSLGTQTYICNVNHKPSNTKVDKKV[letters of human IgG1 Fc omitted]
light: EIVLTQSPATLSLSPGERATLSCKASQSVSFAGTSLMHWYQQKPGQAPRLLIYRASNLEAGVPARFSGSGSKTDFTLTISSLEPEDFAVYYCQQSREYPYTFGGGTKVEIKRTVAAPSVFIFPPSDEQLKSGTASVVCLLNNFYPREAKVQWKVDNALQSGNSQESVTEQDSKDSTYSLSSTLTLSKADYEKHKVYACEVTHQGLSSPVTKSFNRGEC
As to B1, the EC50 result in the experiment with Mouse FOLR1 and with Rat FOLR1 was “— (“—” indicates no binding)” throughout. The Ka with FRα-His (association rate) is 1.021e+06 M⁻¹ s⁻¹. Further, the Kd with FRα-His (dissociation rate) was determined as 0.0002927 s⁻¹.

Source of the values: patent publication US20250059274A1, “ANTI-FRa ANTIBODY, AND ANTIBODY-DRUG CONJUGATE AND USE THEREOF” (Bio-Thera Solutions, Ltd., priority 2021, published 2025).
